Measured values from ChEMBL document CHEMBL4699668, “Discovery and Structure-Activity Relationships of Novel Template, Truncated 1'-Homologated Adenosine Derivatives as Pure Dual PPARγ/δ Modulators” (J Med Chem, 2020).

By UniProt entry, the sequences of proteins in these tests, tags left out. Where a name states a change or a piece, a line headed by the entry shows the natural chain unless it says otherwise.
UniProt P37231: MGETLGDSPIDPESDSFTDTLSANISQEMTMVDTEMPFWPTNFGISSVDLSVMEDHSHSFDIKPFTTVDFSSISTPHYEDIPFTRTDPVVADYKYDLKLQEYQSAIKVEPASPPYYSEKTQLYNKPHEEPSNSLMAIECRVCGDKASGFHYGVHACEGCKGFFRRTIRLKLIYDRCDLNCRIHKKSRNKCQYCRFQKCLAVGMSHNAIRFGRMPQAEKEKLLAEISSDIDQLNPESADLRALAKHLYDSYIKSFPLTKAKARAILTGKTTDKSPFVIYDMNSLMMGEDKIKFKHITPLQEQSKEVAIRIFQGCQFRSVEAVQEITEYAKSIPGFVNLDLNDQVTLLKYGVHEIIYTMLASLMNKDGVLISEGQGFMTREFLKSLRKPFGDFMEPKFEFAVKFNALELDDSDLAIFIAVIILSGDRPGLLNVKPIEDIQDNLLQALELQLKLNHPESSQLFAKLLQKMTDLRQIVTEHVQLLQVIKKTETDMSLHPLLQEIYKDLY

Key:
[1] = target: Peroxisome proliferator-activated receptor gamma (Homo sapiens, UniProt P37231)
[2] = target: T1, Peroxisome proliferator-activated receptor delta (Homo sapiens, UniProt Q03181)
T1 sequence (Q03181 whole entry): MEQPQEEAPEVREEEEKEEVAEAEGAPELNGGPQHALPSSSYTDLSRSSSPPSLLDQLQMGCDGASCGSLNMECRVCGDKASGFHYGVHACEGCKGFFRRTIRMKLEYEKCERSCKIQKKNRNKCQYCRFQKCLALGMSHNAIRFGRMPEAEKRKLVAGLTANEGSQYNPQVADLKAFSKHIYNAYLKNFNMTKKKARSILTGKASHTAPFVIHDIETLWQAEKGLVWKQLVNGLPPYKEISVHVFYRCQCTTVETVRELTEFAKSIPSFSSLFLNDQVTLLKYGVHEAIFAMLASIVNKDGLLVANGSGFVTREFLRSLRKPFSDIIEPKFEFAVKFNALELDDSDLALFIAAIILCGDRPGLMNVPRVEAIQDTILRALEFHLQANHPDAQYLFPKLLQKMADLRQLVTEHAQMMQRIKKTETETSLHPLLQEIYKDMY

[3] = target: T1, Peroxisome proliferator-activated receptor delta; remark: listed apart in the source

SMILES | Ki [1] | EC50 [2] | Ki [3]
O[C@@H]1[C@H](O)CS[C@H]1n1cnc2c(NCc3cccc(I)c3)nc(Cl)nc21 | 3.33 µM | – | –
O[C@@H]1[C@H](O)CS[C@H]1Cn1cnc2c(NCc3cccc(I)c3)nc(Cl)nc21 | – | 12.5 µM | 0.106 µM
